Measurements from ChEMBL document CHEMBL3407375, “Substituted pyrrolidin-2-ones: Centrally acting orexin receptor antagonists promoting sleep. Part 2” (Bioorg Med Chem Lett, 2015).

By UniProt entry, the sequences of proteins in these tests, tags left out.
UniProt O43613, whole entry, looked up: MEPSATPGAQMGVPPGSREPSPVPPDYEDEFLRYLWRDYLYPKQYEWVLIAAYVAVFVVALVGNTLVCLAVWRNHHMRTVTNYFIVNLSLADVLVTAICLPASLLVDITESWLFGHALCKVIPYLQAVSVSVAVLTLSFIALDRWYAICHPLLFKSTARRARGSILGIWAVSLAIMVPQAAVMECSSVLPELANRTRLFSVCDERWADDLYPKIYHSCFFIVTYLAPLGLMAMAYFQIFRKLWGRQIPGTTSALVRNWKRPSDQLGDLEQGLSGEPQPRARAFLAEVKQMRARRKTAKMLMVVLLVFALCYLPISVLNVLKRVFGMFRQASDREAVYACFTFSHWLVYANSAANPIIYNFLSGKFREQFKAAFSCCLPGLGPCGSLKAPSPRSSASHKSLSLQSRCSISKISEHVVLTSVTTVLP
UniProt O43614, whole entry, looked up: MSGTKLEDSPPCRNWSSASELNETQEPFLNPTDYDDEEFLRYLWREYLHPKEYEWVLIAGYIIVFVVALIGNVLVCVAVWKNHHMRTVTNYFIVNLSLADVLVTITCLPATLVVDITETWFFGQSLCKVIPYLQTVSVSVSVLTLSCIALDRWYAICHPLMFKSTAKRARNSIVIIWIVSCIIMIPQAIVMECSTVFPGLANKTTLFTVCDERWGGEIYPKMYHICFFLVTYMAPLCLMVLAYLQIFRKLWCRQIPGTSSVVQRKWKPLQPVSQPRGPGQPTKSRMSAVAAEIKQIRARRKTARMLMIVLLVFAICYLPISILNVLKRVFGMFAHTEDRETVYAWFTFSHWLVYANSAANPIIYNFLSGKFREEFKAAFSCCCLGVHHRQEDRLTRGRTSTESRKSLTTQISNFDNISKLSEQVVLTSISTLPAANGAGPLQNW

Experiments:
[1] = target: T1, Orexin/Hypocretin receptor type 1 (Homo sapiens, UniProt O43613); assay: Antagonist activity at human orexin 1 receptor expressed in CHO cells assessed as inhibition of orexin-A-induced calcium mobilization by FLIPR assay; type: functional, cell-based
Orexin receptor type 2 [2] = target: T2, Orexin receptor type 2 (Homo sapiens, UniProt O43614); assay: Antagonist activity at human orexin 2 receptor expressed in CHO cells assessed as inhibition of orexin-A-induced calcium mobilization by FLIPR assay; type: functional, cell-based
[3] = target: T1, Orexin/Hypocretin receptor type 1; assay: Binding affinity to human OX1R
Orexin receptor type 2 [4] = target: T2, Orexin receptor type 2; assay: Binding affinity to human OX2R

Compound | IC50 [1] | IC50 (Orexin receptor type 2 [2]) | IC50 [3] | IC50 (Orexin receptor type 2 [4])
COc1cccc(F)c1[C@@H]1C[C@H](F)C(=O)N1Cc1ccc2oc3ccccc3c2c1 (racemic) | 0.002 µM | – | – | –
COc1cccc(OC)c1[C@@H]1C[C@H](F)C(=O)N1Cc1ccc2oc3ccccc3c2c1 (racemic) | 0.002 µM | – | – | –
COc1cccc(OC)c1[C@@H]1C[C@H](F)C(=O)N1Cc1ccc(OC(F)(F)F)cc1 (racemic) | 0.019 µM | – | – | –
COc1cccc(OC)c1[C@@H]1C[C@@H](O)C(=O)N1Cc1ccc(OC(F)(F)F)cc1 (racemic) | 0.059 µM | – | – | –
COc1cccc(F)c1[C@H]1C[C@H](O)C(=O)N1Cc1ccc2oc3ccccc3c2c1 | 0.315 µM | 1.2 µM | – | –
COc1cccc(OC)c1[C@@H]1C[C@H](O)C(=O)N1Cc1ccc(OC(F)(F)F)cc1 (racemic) | 0.67 µM | – | – | –
COc1cccc(F)c1[C@@H]1C[C@@H](O)C(=O)N1Cc1ccc2oc3ccccc3c2c1 | 0.003 µM | 0.264 µM | 0.737 µM | 0.004 µM
COc1cccc(OC)c1[C@@H]1C[C@@H](F)C(=O)N1Cc1ccc(OC(F)(F)F)cc1 (racemic) | 0.242 µM | – | – | –
COc1cccc(F)c1C1C[C@@H](O)C(=O)N1Cc1ccc2oc3ccccc3c2c1 (mixture of isomers) | 0.005 µM | 0.467 µM | – | –
COc1cccc(F)c1[C@@H]1C[C@H](Cl)C(=O)N1Cc1ccc2oc3ccccc3c2c1 (racemic) | 0.005 µM | – | – | –
